Measured affinities in a library of Ab-95 light chain variants

Data: MIT Lincoln Laboratory AlphaSeq set, Engelhart et al. 2022, doi:10.1038/s41597-022-01779-4, as distributed in FLAb.

Antigen: PDVDLGDISGINAS, a 14-residue peptide of the SARS-CoV-2 spike HR2 region.

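The starting antibody came from a phage panning campaign against this peptide. AAYL52 was designed without a model: most single CDR substitutions and a random sample of double and triple ones. The scFvs were displayed on barcoded MATa yeast, the peptide on MATalpha yeast. Binding brings cells together so that they mate, and sequencing counts the barcode pairs among the diploids. Each replicate has its own calibration line, from reference interactions of the BCL2 family. Mating was done three times.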

Parent scFv Ab-95: VH joined to VL by a 15-residue (Gly4Ser)3 linker. Changes lie in the light chain CDRs alone.
VH: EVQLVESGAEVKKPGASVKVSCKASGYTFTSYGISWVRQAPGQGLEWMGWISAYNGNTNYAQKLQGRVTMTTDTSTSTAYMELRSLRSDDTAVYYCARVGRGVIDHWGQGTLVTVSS
VL: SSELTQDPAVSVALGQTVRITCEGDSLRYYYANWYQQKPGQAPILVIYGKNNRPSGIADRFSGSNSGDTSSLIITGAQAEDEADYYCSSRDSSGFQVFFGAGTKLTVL

Changes read parent residue, position, new residue, counted from the first residue of the VL shown. Scale: log10 of Kd in nM, estimated from mating counts; low values are strong binders. The mean shown is taken over the replicates in which the pair was detected. An entry "n.d." has no value in the source: the pair was not observed among the diploids in that replicate. This suggests poor binding but is not conclusive.

changes	log10 Kd, replicates	mean log10 Kd (nM)	control signals
P54K S92I S93M	n.d. / n.d. / n.d.	n.d.	0 of 9
N52Q D91M S92Q	n.d. / n.d. / 3.46	3.46	2 of 9 (3.76)
E23H N51Q S55I	2.58 / 2.79 / 2.22	2.53	2 of 9 (4.30)
Y30M R53P G94H	3.77 / 4.30 / n.d.	4.04	4 of 9 (3.95)
E23G D25E F98A	2.75 / 2.09 / 2.77	2.54	1 of 9 (4.03)
D25H N51E V97M	2.74 / 3.63 / 3.74	3.37	3 of 9 (3.40)
Y30S S55T	1.08 / 0.96 / 0.65	0.90	3 of 9 (4.82)
D25N Y30A Y31I	2.82 / 2.07 / 1.72	2.20	1 of 9 (3.48)
S88G V97S	3.88 / 2.89 / 3.13	3.30	2 of 9 (3.90)
A32N Q96Y V97K	n.d. / n.d. / n.d.	n.d.	0 of 9
L27P G94V V97E	n.d. / n.d. / n.d.	n.d.	1 of 9 (4.20)
Y31T N33S S93N	3.01 / 2.76 / 2.58	2.78	2 of 9 (4.15)
D25P S55Y G94D	3.34 / 3.40 / 4.30	3.68	5 of 9 (4.13)
Y29W R53E G94Y	n.d. / n.d. / n.d.	n.d.	1 of 9 (3.84)
R28M N33P R90L	3.28 / 4.93 / n.d.	4.11	2 of 9 (3.63)
D25R N51D S88Y	n.d. / n.d. / n.d.	n.d.	2 of 9 (3.36)
K50W G94H F95Q	n.d. / 5.84 / n.d.	5.84	7 of 9 (3.70)
Y29V S88K D91I	3.74 / n.d. / 3.39	3.57	2 of 9 (3.08)
S26Y N33K G49Y	4.14 / 4.46 / 3.49	4.03	3 of 9 (4.03)
E23Q Y31Q P54F	1.35 / 1.33 / 0.86	1.18	5 of 9 (3.51)
D25L S89A S93F	2.99 / 3.64 / 3.32	3.31	3 of 9 (3.86)
A32E S92I	1.43 / 1.37 / 1.12	1.31	5 of 9 (4.34)
G24L S88N S89D	4.56 / 4.42 / 4.48	4.49	2 of 9 (3.99)
P54K Q96M V97R	3.64 / 3.68 / 2.62	3.31	3 of 9 (4.29)
Y29E Y31D A32K	3.45 / 2.49 / 2.56	2.83	2 of 9 (2.81)
P54I S88A Q96V	3.53 / 2.66 / 2.62	2.94	3 of 9 (3.35)
F95K F98W	4.17 / 3.30 / 3.33	3.60	2 of 9 (3.71)
Y30D S93Y Q96P	2.77 / 2.49 / 2.44	2.57	6 of 9 (4.83)
Y31D N33A R90L	n.d. / n.d. / n.d.	n.d.	2 of 9 (3.86)
N33S S92Q F98I	3.70 / 3.21 / 3.35	3.42	6 of 9 (3.89)
Y30R Y31S V97M	3.67 / 2.84 / 3.81	3.44	2 of 9 (4.35)
D25T N52F S93W	3.74 / 2.73 / n.d.	3.23	2 of 9 (3.11)
K50S G94T F95T	3.26 / 2.88 / 3.76	3.30	3 of 9 (4.00)
R28Y Y31C G49V	n.d. / n.d. / n.d.	n.d.	1 of 9 (3.24)
D25S Y30P	2.87 / 3.12 / 2.16	2.72	3 of 9 (3.31)

Again, the first 5 entries without any signal:

changes	log10 Kd, replicates	mean log10 Kd (nM)	control signals
P54K S92I S93M	n.d. / n.d. / n.d.	n.d.	0 of 9
A32N Q96Y V97K	n.d. / n.d. / n.d.	n.d.	0 of 9
L27P G94V V97E	n.d. / n.d. / n.d.	n.d.	1 of 9 (4.20)
Y29W R53E G94Y	n.d. / n.d. / n.d.	n.d.	1 of 9 (3.84)
D25R N51D S88Y	n.d. / n.d. / n.d.	n.d.	2 of 9 (3.36)

Background: pairings of library AAYL52 with three empty control strains gave a value in 28% of cases (median 3.91, 5th percentile 2.90). Values in that range, when seen in few replicates, are hard to tell from nonspecific mating. For each scFv, signals with the empty controls are counted beside the result, with their mean in brackets.